Source: paper PMC9841523, “Discovery of RMC-5552, a Selective Bi-Steric Inhibitor of mTORC1, for the Treatment of mTORC1-Activated Tumors” (Journal of Medicinal Chemistry, 2022)

System: 4EBP1 T37/T46 phosphorylation (mTORC1)
Assay: AlphaLISA/MSD analysis of 4EBP1 phosphorylation in MDA-MB-468 cells
Assay type: cell-based
Details: pAKT IC50 versus p4EBP1 IC50, MDA-MB-468 cells
Procedure: Cell culture and reagents. Cells were obtained from ATCC, grown in appropriate medium supplemented with 10% fetal bovine serum and 1% penicillin/streptomycin and maintained at 37 °C in a humidified incubator at 5% CO 2.
AlphaLISA and MesoScale Discovery (MSD) analysis of 4EBP1, S6K and AKT phosphorylation. mTOR substrate phosphorylation in MDA-MB-468 cells was assayed using AlphaLISA SureFire Ultra kits for p4EBP1 Thr37/46, p-P70S6K Thr389 and p-AKT1/2/3 Ser473 (PerkinElmer), and MSD Multi-Array Assay Systems for Phospho-4EBP1 (Thr37/46) and Phospho-AKT (Ser473) (MSD). Cells were seeded at 25,000 cells per well and exposed the next day to serial three-fold dilutions of compounds in complete medium with 0.1% dimethylsulfoxide (DMSO). After indicated incubation times, cells were lysed and AlphaLISA or MSD performed according to the manufacturers’ protocols. Samples were read using an EnVision Multilabel Plate Reader (PerkinElmer) using standard AlphaLISA settings or using an MSD plate reader. Data were plotted as a function of logM [compound] with a sigmoidal concentration response (variable slope) model fitted to the data to estimate the inhibitor half-maximum effective concentration (EC 50) in Prism 7 (GraphPad). Alternatively, results were analyzed as percentage of control in which 0% was set as signal from 1 μM Torin1 and 100% was set as the mean of DMSO wells on each plate, and inhibitor EC 50 was estimated as described

Compound | selectivity (mTORC1/mTORC2 ratio)
CO[C@H]1C[C@@H]2CC[C@@H](C)[C@@](O)(O2)C(=O)C(=O)N2CCCC[C@H]2C(=O)O[C@H]([C@H](C)C[C@@H]2CC[C@@H](OCCOCc3cn(CCOCCOCCOCCOCCOCCOCCOCCOCCC(=O)NCCCCn4nc(-c5ccc6oc(N)nc6c5)c5c(N)ncnc54)nn3)[C@H](OC)C2)CC(=O)[C@H](C)/C=C(\C)[C@@H](O)[C@@H](OC)C(=O)[C@H](C)C[C@H](C)/C=C/C=C/C=C/1C [compound 3, RapaLink-1, reference compound] | 3.9
CO[C@H]1C[C@@H]2CC[C@@H](C)[C@@](O)(O2)C(=O)C(=O)N2CCCC[C@H]2C(=O)O[C@H]([C@H](C)C[C@@H]2CC[C@@H](OCCCCc3cn(CCOCCOCCOCCOCCOCCOCCOCCOCCC(=O)NCCCCn4nc(-c5ccc6oc(N)nc6c5)c5c(N)ncnc54)nn3)[C@H](OC)C2)CC(=O)[C@H](C)/C=C(\C)[C@@H](O)[C@@H](OC)C(=O)[C@H](C)C[C@H](C)/C=C/C=C/C=C/1C [compound 16] | 2.8
CO[C@H]1C[C@@H]2CC[C@@H](C)[C@@](O)(O2)C(=O)C(=O)N2CCCC[C@H]2C(=O)O[C@H]([C@H](C)C[C@@H]2CC[C@@H](OCCOCc3cn(CCOCCOCCOCCOCCOCCOCCOCCOCCC(=O)NCCCCn4nc(-c5cc6cc(O)ccc6[nH]5)c5c(N)ncnc54)nn3)[C@H](OC)C2)CC(=O)[C@H](C)/C=C(\C)[C@@H](O)[C@@H](OC)C(=O)[C@H](C)C[C@H](C)/C=C/C=C/C=C/1C [compound 17, reference compound] | 9.6
CO[C@H]1C[C@@H]2CC[C@@H](C)[C@@](O)(O2)C(=O)C(=O)N2CCCC[C@H]2C(=O)O[C@H]([C@H](C)C[C@@H]2CC[C@@H](OCCCCc3cn(CCOCCOCCOCCOCCOCCOCCOCCOCCC(=O)NCCCCn4nc(-c5cc6cc(O)ccc6[nH]5)c5c(N)ncnc54)nn3)[C@H](OC)C2)CC(=O)[C@H](C)/C=C(\C)[C@@H](O)[C@@H](OC)C(=O)[C@H](C)C[C@H](C)/C=C/C=C/C=C/1C [compound 18] | 12.9
COc1ccc(-c2ccc3ncc4c(c3c2)n(C)c(=O)n4-c2ccc(N3CCN(C(=O)CCOCCOCCOCCOCCOCCOCCOCCOCCn4cc(CCCCO[C@@H]5CC[C@@H](C[C@@H](C)[C@@H]6CC(=O)[C@H](C)/C=C(\C)[C@@H](O)[C@@H](OC)C(=O)[C@H](C)C[C@H](C)/C=C/C=C/C=C(\C)[C@@H](OC)C[C@@H]7CC[C@@H](C)[C@@](O)(O7)C(=O)C(=O)N7CCCC[C@H]7C(=O)O6)C[C@H]5OC)nn4)CC3)c(C(F)(F)F)c2)cn1 [compound 19] | 8.7
CO[C@H]1C[C@@H]2CC[C@@H](C)[C@@](O)(O2)C(=O)C(=O)N2CCCC[C@H]2C(=O)O[C@H]([C@H](C)C[C@@H]2CC[C@@H](OCCCCc3cn(CCOCCOCCOCCOCCOCCOCCOCCOCCC(=O)NCCCCn4nc(-c5cnc6[nH]ccc6c5)c5c(N)ncnc54)nn3)[C@H](OC)C2)CC(=O)[C@H](C)/C=C(\C)[C@@H](O)[C@@H](OC)C(=O)[C@H](C)C[C@H](C)/C=C/C=C/C=C/1C [compound 20] | 17.0
CO[C@H]1C[C@@H]2CC[C@@H](C)[C@@](O)(O2)C(=O)C(=O)N2CCCC[C@H]2C(=O)O[C@H]([C@H](C)C[C@@H]2CC[C@@H](OCCCCc3cn(CCOCCOCCOCCOCCOCCOCCOCCOCCC(=O)N4CCc5cc(Cn6nc(-c7ccc8oc(N)nc8c7)c7c(N)ncnc76)ccc5C4)nn3)[C@H](OC)C2)CC(=O)[C@H](C)/C=C(\C)[C@@H](O)[C@@H](OC)C(=O)[C@H](C)C[C@H](C)/C=C/C=C/C=C/1C [compound 21] | 20.0
CO[C@H]1C[C@@H]2CC[C@@H](C)[C@@](O)(O2)C(=O)C(=O)N2CCCC[C@H]2C(=O)O[C@H]([C@H](C)C[C@@H]2CC[C@@H](OCCCCc3cn(CCOCCOCCOCCOCCOCCOCCOCCOCCC(=O)N4CCC(Cn5nc(-c6ccc7oc(N)nc7c6)c6c(N)ncnc65)CC4)nn3)[C@H](OC)C2)CC(=O)[C@H](C)/C=C(\C)[C@@H](O)[C@@H](OC)C(=O)[C@H](C)C[C@H](C)/C=C/C=C/C=C/1C [compound 22] | 2.7
CO[C@H]1C[C@@H]2CC[C@@H](C)[C@@](O)(O2)C(=O)C(=O)N2CCCC[C@H]2C(=O)O[C@H]([C@H](C)C[C@@H]2CC[C@@H](OCCCCc3cn(CCOCCOCCOCCOCCOCCOCCC(=O)NCCCCn4nc(-c5cnc6[nH]ccc6c5)c5c(N)ncnc54)nn3)[C@H](OC)C2)CC(=O)[C@H](C)/C=C(\C)[C@@H](O)[C@@H](OC)C(=O)[C@H](C)C[C@H](C)/C=C/C=C/C=C/1C [compound 24] | 3.5
CO[C@H]1C[C@@H]2CC[C@@H](C)[C@@](O)(O2)C(=O)C(=O)N2CCCC[C@H]2C(=O)O[C@H]([C@H](C)C[C@@H]2CC[C@@H](OCCCCc3cn(CCOCCOCCOCCOCCOCCOCCC(=O)NCCCCn4nc(-c5cc6cc(O)ccc6[nH]5)c5c(N)ncnc54)nn3)[C@H](OC)C2)CC(=O)[C@H](C)/C=C(\C)[C@@H](O)[C@@H](OC)C(=O)[C@H](C)C[C@H](C)/C=C/C=C/C=C/1C [compound 25] | 0.3
COc1ccc(-c2ccc3ncc4c(c3c2)n(-c2ccc(N3CCN(C(=O)CCOCCOCCOCCOCCOCCOCCn5cc(CCCCO[C@@H]6CC[C@@H](C[C@@H](C)[C@@H]7CC(=O)[C@H](C)/C=C(\C)[C@@H](O)[C@@H](OC)C(=O)[C@H](C)C[C@H](C)/C=C/C=C/C=C(\C)[C@@H](OC)C[C@@H]8CC[C@@H](C)[C@@](O)(O8)C(=O)C(=O)N8CCCC[C@H]8C(=O)O7)C[C@H]6OC)nn5)CC3)c(C(F)(F)F)c2)c(=O)n4C)cn1 [compound 26] | 9.3
CO[C@H]1C[C@@H]2CC[C@@H](C)[C@@](O)(O2)C(=O)C(=O)N2CCCC[C@H]2C(=O)O[C@H]([C@H](C)C[C@@H]2CC[C@@H](OCCCCc3cn(CCOCCOCCOCCOCCOCCOCCC(=O)NCCCCn4nc(-c5ccc6oc(N)nc6c5)c5c(N)ncnc54)nn3)[C@H](OC)C2)CC(=O)[C@H](C)/C=C(\C)[C@@H](O)[C@@H](OC)C(=O)[C@H](C)C[C@H](C)/C=C/C=C/C=C/1C [compound 27] | 4.7
CO[C@H]1C[C@@H]2CC[C@@H](C)[C@@](O)(O2)C(=O)C(=O)N2CCCC[C@H]2C(=O)O[C@H]([C@H](C)C[C@@H]2CC[C@@H](OCCCCc3cn(CCOCCOCCOCCOCCOCCC(=O)NCCCCn4nc(-c5ccc6oc(N)nc6c5)c5c(N)ncnc54)nn3)[C@H](OC)C2)CC(=O)[C@H](C)/C=C(\C)[C@@H](O)[C@@H](OC)C(=O)[C@H](C)C[C@H](C)/C=C/C=C/C=C/1C [compound 28] | 1.3
CO[C@H]1C[C@@H]2CC[C@@H](C)[C@@](O)(O2)C(=O)C(=O)N2CCCC[C@H]2C(=O)O[C@H]([C@H](C)C[C@@H]2CC[C@@H](OC(=O)NCCOCCOCCOCCOCCOCCOCCOCCOCCC(=O)N3CCc4cc(Cn5nc(-c6ccc7oc(N)nc7c6)c6c(N)ncnc65)ccc4C3)[C@H](OC)C2)CC(=O)[C@H](C)/C=C(\C)[C@@H](O)[C@@H](OC)C(=O)[C@H](C)C[C@H](C)/C=C/C=C/C=C/1C [compound 30] | 11.2
CO[C@H]1C[C@@H]2CC[C@@H](C)[C@@](O)(O2)C(=O)C(=O)N2CCCC[C@H]2C(=O)O[C@H]([C@H](C)C[C@@H]2CC[C@@H](OC(=O)NCCOCCOCCOCCOCCOCCOCCOCCOCCC(=O)NCCS(=O)(=O)c3ccc(C(=O)N4CCOc5ccc(-c6ccc(N)nc6)cc5C4)c(C)c3F)[C@H](OC)C2)CC(=O)[C@H](C)/C=C(\C)[C@@H](O)[C@@H](OC)C(=O)[C@H](C)C[C@H](C)/C=C/C=C/C=C/1C [compound 31] | 4.1
